Results on 1 compound are retold here after BindingDB's records for patent US20240294545 (Cspc Zhongqi Pharmaceutical Technology (Shijiazhuang), 2024).

Protein sequences, listed by entry. Tags and fused reporters are not part of them. Lines headed by an entry give the natural chain unless they say otherwise; changes in a name come on top.
UniProt Q13315: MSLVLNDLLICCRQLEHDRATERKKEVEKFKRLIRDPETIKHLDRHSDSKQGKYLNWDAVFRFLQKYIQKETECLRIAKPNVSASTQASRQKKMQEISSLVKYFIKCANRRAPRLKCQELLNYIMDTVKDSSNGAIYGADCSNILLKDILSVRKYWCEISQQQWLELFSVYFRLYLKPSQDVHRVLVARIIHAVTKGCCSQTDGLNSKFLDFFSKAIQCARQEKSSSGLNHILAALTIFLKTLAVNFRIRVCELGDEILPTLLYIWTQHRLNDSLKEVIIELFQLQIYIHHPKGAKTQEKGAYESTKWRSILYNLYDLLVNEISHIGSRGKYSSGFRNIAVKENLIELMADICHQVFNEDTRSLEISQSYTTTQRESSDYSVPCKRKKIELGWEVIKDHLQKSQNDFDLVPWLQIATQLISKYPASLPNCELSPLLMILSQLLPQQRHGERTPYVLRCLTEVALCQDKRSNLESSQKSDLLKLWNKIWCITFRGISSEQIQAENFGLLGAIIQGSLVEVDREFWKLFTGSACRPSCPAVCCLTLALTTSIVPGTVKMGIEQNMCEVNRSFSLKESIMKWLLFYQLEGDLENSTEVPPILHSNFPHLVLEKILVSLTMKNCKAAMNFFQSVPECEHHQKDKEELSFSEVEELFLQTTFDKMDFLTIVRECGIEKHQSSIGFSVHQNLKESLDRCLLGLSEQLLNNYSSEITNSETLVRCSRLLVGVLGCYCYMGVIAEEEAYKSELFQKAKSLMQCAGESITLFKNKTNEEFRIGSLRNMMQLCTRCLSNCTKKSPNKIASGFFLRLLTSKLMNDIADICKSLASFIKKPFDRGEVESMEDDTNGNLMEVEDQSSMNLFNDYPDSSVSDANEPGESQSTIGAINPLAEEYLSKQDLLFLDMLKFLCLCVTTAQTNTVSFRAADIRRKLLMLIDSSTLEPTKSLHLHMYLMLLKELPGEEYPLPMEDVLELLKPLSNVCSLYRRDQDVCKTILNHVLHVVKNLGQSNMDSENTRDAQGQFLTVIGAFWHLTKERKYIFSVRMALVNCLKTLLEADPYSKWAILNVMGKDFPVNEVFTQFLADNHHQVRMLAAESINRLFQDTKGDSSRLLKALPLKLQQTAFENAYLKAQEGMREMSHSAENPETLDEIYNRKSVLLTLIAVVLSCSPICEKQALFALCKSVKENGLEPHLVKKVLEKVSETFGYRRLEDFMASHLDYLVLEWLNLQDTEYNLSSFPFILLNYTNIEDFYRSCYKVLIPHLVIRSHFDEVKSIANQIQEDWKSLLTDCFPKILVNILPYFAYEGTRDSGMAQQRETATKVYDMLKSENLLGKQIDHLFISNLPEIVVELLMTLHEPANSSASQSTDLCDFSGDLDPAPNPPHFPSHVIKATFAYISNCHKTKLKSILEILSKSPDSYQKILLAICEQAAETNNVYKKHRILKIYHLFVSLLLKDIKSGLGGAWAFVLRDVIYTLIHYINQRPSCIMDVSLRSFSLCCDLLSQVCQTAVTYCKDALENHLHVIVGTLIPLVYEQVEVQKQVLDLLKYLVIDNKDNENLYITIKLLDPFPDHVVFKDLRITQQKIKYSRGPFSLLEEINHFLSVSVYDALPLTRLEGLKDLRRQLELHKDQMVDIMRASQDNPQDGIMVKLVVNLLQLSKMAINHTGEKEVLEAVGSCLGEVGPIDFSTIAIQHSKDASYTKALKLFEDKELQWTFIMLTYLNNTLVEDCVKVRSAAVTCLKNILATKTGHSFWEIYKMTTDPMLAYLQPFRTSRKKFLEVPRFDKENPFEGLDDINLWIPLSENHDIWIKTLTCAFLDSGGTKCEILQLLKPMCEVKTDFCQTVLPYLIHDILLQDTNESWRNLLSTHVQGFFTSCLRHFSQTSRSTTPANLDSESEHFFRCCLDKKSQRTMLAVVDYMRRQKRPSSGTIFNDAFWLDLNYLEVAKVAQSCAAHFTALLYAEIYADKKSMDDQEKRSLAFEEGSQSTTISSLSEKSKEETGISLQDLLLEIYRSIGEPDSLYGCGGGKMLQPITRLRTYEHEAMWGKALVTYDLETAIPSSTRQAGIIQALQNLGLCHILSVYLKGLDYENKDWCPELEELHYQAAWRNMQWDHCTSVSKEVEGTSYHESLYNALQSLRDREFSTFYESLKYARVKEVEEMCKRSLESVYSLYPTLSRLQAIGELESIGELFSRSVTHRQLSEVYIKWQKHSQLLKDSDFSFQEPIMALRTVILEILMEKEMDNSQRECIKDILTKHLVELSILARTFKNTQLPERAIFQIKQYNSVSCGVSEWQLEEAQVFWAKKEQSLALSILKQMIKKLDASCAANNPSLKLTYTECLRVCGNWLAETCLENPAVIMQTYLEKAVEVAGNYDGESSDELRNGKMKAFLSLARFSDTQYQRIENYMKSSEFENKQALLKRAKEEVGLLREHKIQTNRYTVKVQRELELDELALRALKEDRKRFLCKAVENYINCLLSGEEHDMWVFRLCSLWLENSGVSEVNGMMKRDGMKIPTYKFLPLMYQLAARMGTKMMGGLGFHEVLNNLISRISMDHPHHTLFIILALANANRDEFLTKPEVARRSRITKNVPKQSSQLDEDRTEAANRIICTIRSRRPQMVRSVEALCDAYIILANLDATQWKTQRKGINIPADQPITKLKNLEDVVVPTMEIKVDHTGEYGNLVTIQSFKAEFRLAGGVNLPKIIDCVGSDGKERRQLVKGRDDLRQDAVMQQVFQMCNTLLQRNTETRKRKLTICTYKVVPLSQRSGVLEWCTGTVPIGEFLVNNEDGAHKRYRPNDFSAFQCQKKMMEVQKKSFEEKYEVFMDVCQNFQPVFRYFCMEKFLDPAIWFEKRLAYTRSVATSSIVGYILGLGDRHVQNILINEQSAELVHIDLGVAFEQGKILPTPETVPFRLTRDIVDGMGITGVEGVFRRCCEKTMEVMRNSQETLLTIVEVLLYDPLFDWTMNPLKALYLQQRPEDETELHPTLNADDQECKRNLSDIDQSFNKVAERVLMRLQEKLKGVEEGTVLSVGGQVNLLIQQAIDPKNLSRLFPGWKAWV

Each structure is given as a SMILES string.

This test deals with Serine-protein kinase ATM (Homo sapiens, UniProt Q13315). Briefly: Inhibitory Activities of Compounds on ATM. As for the experimental part: (1) Preparation of 1× kinase basal buffer and reaction termination solution1) 1× kinase basal buffer50 mM HEPES, pH 7.50.0015% Brij-35 (polyoxyethylene lauryl ether)100 mM Na3VO45 M NaCl1 M MgCl21 M MnCl22) Reaction termination solution100 mM HEPES, pH 7.50.015% Brij-350.2% Coating Reagent #350 mM EDTA(2) Preparation of test compound1) Dissolution and dilution of compound: a compound was dissolved into DMSO to yield a 10 mM or 5 mM stock solution. To a 96-well plate, 98 μL of DMSO and 2 μL of the 10 mM stock solution were added and mixed evenly so that the concentration of the solution was 200 μM. […]

`CN1CCN(CCCOc2ccc(-c3c(F)cc4ncc5c6c4c3OCC3(CCC3)n6c(=O)n5C)cn2)CC1` [US20240294545, Compound A-164] yielded an IC50 of 0.59 nM.

The IC50 is the concentration at which inhibition is half-maximal. A low value points to inhibition by little substance.
